Data on one molecule can be found in patent US7723366B2 (Chugai Seiyaku Kabushiki Kaisha, priority 2001, dated 2010).

Amino acid sequences for entries named in this document (tags omitted). Residues count along the entry.
UniProt Q920F5, 39-492 limits assumed: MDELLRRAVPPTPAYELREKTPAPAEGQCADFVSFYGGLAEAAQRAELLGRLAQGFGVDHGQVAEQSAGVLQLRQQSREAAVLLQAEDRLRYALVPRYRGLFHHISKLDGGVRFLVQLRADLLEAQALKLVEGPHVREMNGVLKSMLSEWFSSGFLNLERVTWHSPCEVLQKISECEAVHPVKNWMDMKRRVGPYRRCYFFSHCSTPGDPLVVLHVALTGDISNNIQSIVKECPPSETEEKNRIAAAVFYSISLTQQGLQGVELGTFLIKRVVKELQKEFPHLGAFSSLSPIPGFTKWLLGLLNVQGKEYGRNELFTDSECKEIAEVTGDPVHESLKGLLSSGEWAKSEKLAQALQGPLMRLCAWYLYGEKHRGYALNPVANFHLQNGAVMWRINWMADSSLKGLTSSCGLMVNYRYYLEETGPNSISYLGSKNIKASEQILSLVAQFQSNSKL

By IC50 is commonly meant the concentration at which inhibition is half-maximal.

This assay concerns the target malonyl-CoA decarboxylase prepared from rat heart (Rattus norvegicus, UniProt Q920F5). As to the kind of experiment: In vitro MCD inhibitory assay (spectrophotometric, 96 well). The following applies: read-out: IC50 of the MCD inhibitors.

`CCCN(C(=O)N1CCOCC1)c1ccc2nc(S)sc2c1`: the half-maximal inhibitory concentration (IC50) amounted to 151 nM.
